Literature values in patent US11103509B2 (University of Kentucky Research Foundation, priority 2018, dated 2021).

Test system: pain in cancer patients
Details: NCT00490139 Control group: trastuzumab 8 mg/kg IV, then 6 mg/kg IV every 3 weeks, 52 weeks; cited from earlier work

**Q.** With trastuzumab as the substance, how does the “Arthralgia, Patient counts” value read?
**A.** Its value is 402/2076.

**Q.** And the “Arthralgia, patient percentage” value?
**A.** The value was “(19.36%)”.

**Q.** And the “Back Pain, patient percentage” value?
**A.** The value was “(6.17%)”.

**Q.** And the “Bone Pain, Patient counts” value?
**A.** The value was 123/2076.

**Q.** And the “Bone Pain, patient percentage” value?
**A.** The value was “(5.92%)”.

**Q.** What about the “Headache, Patient counts” value of the same substance?
**A.** The value was 262/2076.

**Q.** And the “Headache, patient percentage” value?
**A.** Its value is “(12.62%)”.

**Q.** What about the “Musculoskeletal pain, patient percentage” value of the same substance?
**A.** Its value is “(5.30%)”.

**Q.** What about the “Pain in Extremity, Patient counts” value of the same substance?
**A.** The value was 175/2076.

**Q.** And the “Pain in Extremity, patient percentage” value?
**A.** The value was “(8.43%)”.
